Measurements reported in publication PMC9619402 (Journal of Medicinal Chemistry, 2022).

The chains behind the UniProt entries cited, without tags or fusion partners. Residues count along the entry.
UniProt P53667, 330-637: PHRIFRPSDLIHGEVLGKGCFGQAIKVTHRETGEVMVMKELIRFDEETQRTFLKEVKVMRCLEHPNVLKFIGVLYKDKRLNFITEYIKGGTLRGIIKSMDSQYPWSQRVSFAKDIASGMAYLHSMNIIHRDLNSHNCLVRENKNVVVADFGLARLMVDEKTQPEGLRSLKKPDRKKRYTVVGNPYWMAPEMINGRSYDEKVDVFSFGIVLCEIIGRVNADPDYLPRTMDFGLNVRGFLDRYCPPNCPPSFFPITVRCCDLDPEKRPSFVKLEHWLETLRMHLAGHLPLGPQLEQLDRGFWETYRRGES
UniProt P53671, 326-638 limits assumed: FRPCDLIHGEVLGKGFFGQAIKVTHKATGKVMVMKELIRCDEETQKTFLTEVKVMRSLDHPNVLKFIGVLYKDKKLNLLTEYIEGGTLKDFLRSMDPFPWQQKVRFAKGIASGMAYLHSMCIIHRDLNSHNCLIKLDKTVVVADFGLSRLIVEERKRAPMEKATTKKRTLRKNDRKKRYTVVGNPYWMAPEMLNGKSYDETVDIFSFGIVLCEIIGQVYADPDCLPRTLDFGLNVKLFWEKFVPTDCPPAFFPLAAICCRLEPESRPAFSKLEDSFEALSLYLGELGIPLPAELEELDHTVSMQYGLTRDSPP

Tests used:
[1] = target: LIMK1 (LIMK1_330–637, kinase catalytic domain) (Homo sapiens, UniProt P53667); settings: 40 nM LIMK1 catalytic domain, 4 μM CFL1, 2 mM ATP; mean ± SEM, at least three experiments unless footnoted; pIC50 greater than 7.7 treat with caution
[2] = target: LIMK2 (LIMK2_347–659, kinase catalytic domain) (Homo sapiens, UniProt P53671); settings: 15 nM LIMK2 catalytic domain, 4 μM CFL1, 2 mM ATP; mean ± SEM; pIC50 greater than 8.1 treat with caution
[3] = target: T1, LIMK1 (NanoLuc LIMK1 kinase fusion) (Homo sapiens, UniProt P53667); assay type: cell-based; settings: HEK293 cells, 2 h; mean ± SEM
T1 construct: host or cells: HEK293
Procedure: (§1) HEK293 cells were resuspended in growth media following routine trypsinization, neutralization, and sedimentation techniques. Cell density was adjusted to 1 ×10^5 cells/mL for each transfection in a total of 25 mL media. The transfection mix was added directly to the cells and mixed gently by inversion. The cells were then plated into T-75 tissue culture flasks and incubated for 20 h.
(§2) Kit components were purchased from Promega (Hampshire, U.K.). […] NanoBRET Tracer #10 (27.5 μL) was diluted in 192.5 μL of DMSO for use as a positive control, which was further diluted with 880 μL of tracer dilution buffer. For negative control, 20 μL of DMSO was added to 80 μL of tracer dilution buffer. LIMK1/2-transfected HEK293 cells were trypsinized, centrifuged, and resuspended in 10 mL of Opti-MEM. Extracellular NanoLuc inhibitor was added at 1:10,000 dilution to the cells, after which 85 μL of cells/well were plated into flat-bottomed, white, 96-well plates. For positive control wells, 5 μL of NanoBRET Tracer #10 was added to wells without compound. For negative controls, the DMSO/tracer dilution buffer solution was added to wells without compound. For test compounds, 10 μL of diluted compounds from the intermediate plate were added in duplicate or DMSO (for control wells) at a final concentration of 0.5% DMSO in Opti-MEM. Plates were incubated at 37 °C and 5% CO2 for 2 h. […]

[4] = target: T2, LIMK2 (NanoLuc LIMK2 kinase fusion) (Homo sapiens, UniProt P53671); assay type: cell-based; settings: HEK293 cells, 2 h; mean ± SEM
T2 construct: host or cells: HEK293
Procedure: as §1, §2

[5] = target: PAK pLIMK2 (PAK-phosphorylated LIMK2) (Homo sapiens, UniProt P53671); settings: 6 nM LIMK2 + 0.2 nM PAK1 kinase domain; mean ± SEM
[6] = target: PAK pLIMK1 (PAK-phosphorylated LIMK1) (Homo sapiens, UniProt P53667); assay: RapidFire mass spectrometry kinase assay, PAK-phosphorylated LIMK1; settings: 5 nM LIMK1 + 0.4 nM PAK1 kinase domain; mean ± SEM
[7] = tested on: p-cofilin levels in SH-SY5Y cells; assay: cells; settings: Homo sapiens, 2 h, read-out: AlphaLISA pIC50 p-cofilin (converted)
Procedure: SH-SY5Y cells were plated into a 96-well plate at 20,000 cells/well. The next day, compounds were prepared in an 8-point, 3-fold serial dilution in DMSO and then further diluted to 20-fold in DMEM/F12 with 10% FBS, 1% antibiotics. SH-SY5Y cell media was replaced with fresh DMEM/F12 media containing 10% FBS and 1% antibiotics. Compounds were added to the SH-SY5Y cells in duplicate at a final compound concentration of 10 μM to 3 nM. LIMKi3 (10 μM) was used as a positive control and 0.5% DMSO was used as a negative control. Cells were placed in the incubator for 2 h, after which the media was removed, and the cells were lysed using 50 μL of AlphaLISA 1× lysis buffer (Perkin Elmer) containing protease inhibitor cocktail (Sigma-Aldrich, Dorset, U.K.) and Pierce phosphatase inhibitor cocktail (Thermofisher, U.K.). Cells were placed on a plate shaker at 350 rpm at RT. Ten microliters of total cell lysate was then transferred to a clean, flat-bottom, white 384-well plate. An acceptor bead solution was made consisting of reaction buffer 1, reaction buffer 2, activation buffer, and acceptor beads from the p-Cofilin SureFire Ultra assay kit (Perkin Elmer, Cat# ALSU-PCOF-A500). […] Finally, the plate was read on a Pherastar reader (BMG Labtech Ltd., Aylesbury, U.K.) using an AlphaLISA cartridge and AlphaLISA plate settings.

[8] = tested on: 468 kinases (scanMax panel); assay: Eurofins/DiscoverX scanMax panel (KINOMEscan) kinome profile; assay type: binding; settings: 1000 nM, fraction of kinases bound >50%

SMILES | RapidFire pIC50 LIMK1 [1] | RapidFire pIC50 LIMK2 [2] | NanoBRET pIC50 LIMK1 [3] | NanoBRET pIC50 LIMK2 [4] | RapidFire pIC50 PAK pLIMK2 [5] | RapidFire pIC50 PAK pLIMK1 [6] | IC50 [7] [nM] | kinome S50 [8]
Nc1nc(NCCNc2ncc(-n3ccnc3)c(-c3ccc(Cl)cc3Cl)n2)ccc1[N+](=O)[O-] [Compound 14] | <5 | <5 | <5 | <5 | <5 | <5 | > 10000 | –
Cc1c[nH]c2ncnc(-c3ccc(NC(=O)N(CCO)c4ccccc4)cc3)c12 [Compound 8] | – | 5.72 ± 0.27 | – | – | <5 | – | 468 | 0.07 (468, 1000 nM)
